In ChEMBL document CHEMBL3243921, “2-Pyrrolidinylideneureas, a new class of central nervous system agents” (J Med Chem, 1978):

What was measured:
Assay type in all cases: organism-based
Conditions in all cases: in vivo
[1] = Therapeutic index, ratio of PD50 for acute toxicity in po dosed mouse assessed as concentration required to produce 50% loss of righting reflex to MED20 for anticonvulsant activity in po dosed mouse assessed as blockade of supramaximal electroshock-induced […] seizure
[2] = Therapeutic index, ratio of PD50 for acute toxicity in po dosed mouse assessed as concentration required to produce 50% loss of righting reflex to MED20 for muscle relaxant activity in po dosed mouse assessed as blockade of pentylenetetrazol-induced tonic extensor seizure
[3] = Therapeutic index, ratio of PD50 for acute toxicity in po dosed mouse assessed as concentration required to produce 50% loss of righting reflex to MED25 for muscle relaxant activity in po dosed mouse assessed as increase in strychnine-induced persistant convulsive threshold
[4] = system: Mus musculus; experiment: Ratio of LD50 for po dosed mouse to PD50 for acute toxicity in po dosed mouse assessed as concentration required to produce 50% loss of righting reflex
[5] = Therapeutic index, ratio of PD50 for acute toxicity in po dosed mouse assessed as concentration required to produce 50% loss of righting reflex to MED causing antianxiety activity in ip dosed rat assessed as effect on increase in punished responses

## CN1C(=O)CN=C(c2ccccc2)c2cc(Cl)ccc21 [DIAZEPAM]
[1]
  TI: 36
[2]
  TI: 485
[3]
  TI: 2900
[4]
  Ratio: 1.1
[5]
  TI: 485
